Where “and” joins values, the source holds several entries; their conditions need not be identical. Equal values may be shown once.
Assay: Plasma drug concentrations and pharmacokinetics after a single intravenous or subcutaneous injection of SIPI-G9 in SD rats
Details: for half-life: sc
Description: Routes: single back subcutaneous injection and single tail vein injection;
Orbital blood was collected at different time points before and after administration. […] High concentration samples were diluted with blank plasma.
Column: SHIM-PACK GISS C18 (2.1 × 100 mm, 1.9 µm); injection volume: 20 µL; mobile phase: phase A: 0.2% acetic acid in water; phase B: methanol, gradient elution (see Table 16 for details);
The ion source is electrospray ionization source (ESI); the drying gas (N2) temperature is 550° C.; the electrospray voltage is 5500 V; the detection method is positive ion detection; the scanning method is the selective reaction monitoring (MRM) method, and the scanning time is 0.15 s.
50 µL plasma was taken and 5 µL internal standard solution (DX07 (His-Leu-Glu-Thr-Glu-Leu-His) 100 ng/mL) was added. After that, 150 µL of methanol was added to precipitate proteins, then centrifuged at 13,000 rpm for 5 min, and 160 µL supernatant was taken and dried with 40° C. N2, then reconstituted with 75 µL of 0.1% formic acid aqueous solution.
Pharmacokinetic parameters were calculated using the non-compartmental model of DAS 2.0 software. Both Cmax and Tmax are measured values; AUC, T½, CL and Vz are calculated by DAS 2.0.

SMILES: CC(=O)N[C@H]1C(OC[C@H](NC(=O)[C@@H](NC(=O)[C@H](Cc2ccc(O)cc2)NC(=O)[C@@H](NC(=O)[C@H](CCC(N)=O)NC(=O)CN)[C@@H](C)OC2O[C@H](CO)[C@@H](O)[C@H](O)[C@H]2NC(C)=O)[C@@H](C)O)C(=O)NCC(=O)O)O[C@H](CO)[C@@H](O)[C@@H]1O (some centres unmarked) [SIPI-G9, GQT(Glc)YTS(Glc)G]
- T1/2 (SIPI-G9 5 mg/kg s.c., SD rats, individual rats, 5 mg/kg): 26.8 min and 25.7 min
- Fa (absolute bioavailability) (rat, in vivo): 82.7%
- bioavailability (rat, in vivo): 86.2%
- half-life (rat, in vivo, 5 mg/kg, T1/2, Mean, SIPI-G9 5 mg/kg s.c., SD rats, n=3): 27.1 min
- half-life (rat, in vivo, 5 mg/kg, T1/2, SIPI-G9 5 mg/kg s.c., SD rats, individual rats): 28.8 min
